Laboratory results from patent publication US20100240720A1, “ALLOSTERIC JNK INHIBITORS” (Burnham Institute for Medical Research, priority 2009, published 2010).
pIC50: −log10 of the molar value.

Protein sequences, listed by entry. Tags and fused reporters are not part of them. Lines headed by an entry give the natural chain unless they say otherwise; changes in a name come on top.
UniProt P45983: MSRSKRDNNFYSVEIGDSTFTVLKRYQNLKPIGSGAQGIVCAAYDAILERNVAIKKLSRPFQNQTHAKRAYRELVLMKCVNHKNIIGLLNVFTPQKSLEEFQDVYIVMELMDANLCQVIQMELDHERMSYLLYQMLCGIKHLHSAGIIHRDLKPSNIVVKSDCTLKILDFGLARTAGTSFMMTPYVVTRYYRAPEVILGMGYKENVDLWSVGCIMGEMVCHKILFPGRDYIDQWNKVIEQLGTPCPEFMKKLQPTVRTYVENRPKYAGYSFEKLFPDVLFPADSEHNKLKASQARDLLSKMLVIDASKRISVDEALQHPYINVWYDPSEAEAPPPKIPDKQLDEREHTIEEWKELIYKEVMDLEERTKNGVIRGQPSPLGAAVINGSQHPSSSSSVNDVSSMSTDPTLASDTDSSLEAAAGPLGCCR

Target: JNK kinase (Homo sapiens, UniProt P45983)
Test: Lantha Screen Kinase Activity Assay
Type: biochemical

## COc1ccc(C)cc1CC(=O)Nc1sccc1C(N)=O
  pIC50: 5.64
